Data taken from patent US9199944B2 (priority 2012, dated 2015).

Protein sequences, listed by entry. Tags and fused reporters are not part of them.
UniProt Q07912, whole entry, species assumed: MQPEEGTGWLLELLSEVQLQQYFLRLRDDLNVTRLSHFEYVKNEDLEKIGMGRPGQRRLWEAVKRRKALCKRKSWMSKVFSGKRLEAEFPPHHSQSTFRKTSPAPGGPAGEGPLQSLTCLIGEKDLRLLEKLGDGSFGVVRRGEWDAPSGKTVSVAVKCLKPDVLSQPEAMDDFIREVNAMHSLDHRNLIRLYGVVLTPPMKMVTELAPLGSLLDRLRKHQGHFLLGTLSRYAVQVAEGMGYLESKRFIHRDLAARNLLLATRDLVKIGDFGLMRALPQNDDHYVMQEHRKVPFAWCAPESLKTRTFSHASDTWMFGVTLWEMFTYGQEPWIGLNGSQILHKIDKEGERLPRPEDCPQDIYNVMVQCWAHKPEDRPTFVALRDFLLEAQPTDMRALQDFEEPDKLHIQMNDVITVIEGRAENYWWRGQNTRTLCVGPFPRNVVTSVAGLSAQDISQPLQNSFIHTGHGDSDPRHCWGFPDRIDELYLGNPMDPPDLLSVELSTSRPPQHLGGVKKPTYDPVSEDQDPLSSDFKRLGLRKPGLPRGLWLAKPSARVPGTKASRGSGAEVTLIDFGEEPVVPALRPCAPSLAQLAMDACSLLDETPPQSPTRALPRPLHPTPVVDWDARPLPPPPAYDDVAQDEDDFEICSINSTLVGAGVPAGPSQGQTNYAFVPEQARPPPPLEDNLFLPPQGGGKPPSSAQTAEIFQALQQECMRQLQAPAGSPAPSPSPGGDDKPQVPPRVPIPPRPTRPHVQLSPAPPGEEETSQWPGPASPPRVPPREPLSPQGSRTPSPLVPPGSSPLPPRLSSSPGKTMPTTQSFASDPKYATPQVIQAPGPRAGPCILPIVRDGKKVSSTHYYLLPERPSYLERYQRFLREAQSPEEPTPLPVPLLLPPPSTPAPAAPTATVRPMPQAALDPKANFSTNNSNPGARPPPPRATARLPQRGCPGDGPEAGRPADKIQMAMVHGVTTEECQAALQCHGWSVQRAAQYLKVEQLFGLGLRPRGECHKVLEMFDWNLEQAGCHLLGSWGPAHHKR

Molecular target: ACK1 (Homo sapiens (Human), UniProt Q07912)
Assay: biochemical
Details: 40 min; for remaining activity at 0.1 µM: read-out: Ack1 activation rate % (0.1 μM); for remaining activity at 1 µM: read-out: Ack1 activation rate % (1 μM)

COc1cc(N2CCN(S(C)(=O)=O)CC2)ccc1Nc1ncc(Cl)c(Nc2ccc(N3CCN(S(C)(=O)=O)CC3)cc2OC)n1
remaining activity at 0.1 µM: 0%
remaining activity at 1 µM: 0%

CCCOc1cc(N2CCN(C(C)=O)CC2)ccc1Nc1nc(Nc2ccc(N3CCN(C(C)=O)CC3)cc2OC)ncc1Cl [Example 2, 1-(4-(4-(2-(4-(4-acetylpiperazin-1-yl)-2-methoxyphenylamino)-5-chloropyrimidin-4-ylamino)-3-propoxyphenyl)piperazin-1-yl)ethanone]
remaining activity at 0.1 µM: 9%
remaining activity at 1 µM: 2%

COc1cc(N2CCN(C(C)=O)CC2)ccc1Nc1ncc(Cl)c(Nc2ccc(N3CCN(C(C)=O)CC3)cc2OC(C)C)n1 [Example 3, 1-(4-(4-(4-(4-(4-acetylpiperazin-1-yl)-2-isopropoxyphenylamino)-5-chloropyrimidin-2-ylamino)-3-methoxyphenyl)piperazin-1-yl)ethanone]
remaining activity at 0.1 µM: 2%
remaining activity at 1 µM: 2%

CCCOc1cc(N2CCN(C(C)=O)CC2)ccc1Nc1nc(Nc2ccc(N3CCN(C(C)=O)CC3)cc2)ncc1Cl [Example 4, 1-(4-(4-(4-(4-(4-acetylpiperazin-1-yl)-2-propoxyphenylamino)-5-chloropyrimidin-2-ylamino)phenyl)piperazin-1-yl)ethanone]
remaining activity at 0.1 µM: 12%
remaining activity at 1 µM: 1%

COc1cc(N2CCN(C(C)=O)CC2)ccc1Nc1ncc(Cl)c(Nc2ccc(N3CCN(C(C)=O)CC3)cc2)n1 [Example 8, 1-(4-(4-(2-(4-(4-acetylpiperazin-1-yl)-2-methoxyphenylamino)-5-chloropyrimidin-4-ylamino)phenyl)piperazin-1-yl)ethanone]
remaining activity at 0.1 µM: 7%
remaining activity at 1 µM: 1%

CC(=O)N1CCN(c2ccc(Nc3ncc(Cl)c(Nc4ccc(N5CCN(C(C)=O)CC5)cc4)n3)cc2)CC1 [Example 9, 1,1′-(4,4′-(4,4′-(5-chloropyrimidin-2,4-diyl)bis(azanediyl)bis(4,1-phenylene))bis(piperazin-4,1-diyl))diethanone]
remaining activity at 0.1 µM: 8%
remaining activity at 1 µM: 1%

COc1cc(N2CCN(C(C)=O)CC2)ccc1Nc1nc(Nc2ccc(N3CCN(C(C)=O)CC3)cc2)ncc1Cl [Example 10, 1-(4-(4-(4-(4-(4-acetylpiperazin-1-yl)-2-methoxyphenylamino)-5-chloropyrimidin-2-ylamino)phenyl)piperazin-1-yl)ethanone]
remaining activity at 0.1 µM: 2%
remaining activity at 1 µM: 0%

COc1cc(N2CCN(C(C)=O)CC2)ccc1Nc1ncc(Cl)c(Nc2ccc(N3CCN(S(C)(=O)=O)CC3)cc2OC)n1 [Example 13, 1-(4-(4-(5-chloro-4-(2-methoxy-4-(4-(methylsulfonyl)piperazin-1-yl)phenylamino)pyrimidin-2-ylamino)-3-methoxyphenyl)piperazin-1-yl)ethanone]
remaining activity at 0.1 µM: 0%
remaining activity at 1 µM: 0%

COc1cc(N2CCN(C(C)=O)CC2)ccc1Nc1ncc(Cl)c(Nc2ccc(N3CCN(C(=O)CO)CC3)cc2OC)n1 [Example 14, 1-(4-(4-(2-(4-(4-acetylpiperazin-1-yl)-2-methoxyphenylamino)-5-chloropyrimidin-4-ylamino)-3-methoxyphenyl)piperazin-1-yl)-2-hydroxyethanone]
remaining activity at 0.1 µM: 1%
remaining activity at 1 µM: 0%

COc1cc(N2CCN(C(C)=O)CC2)ccc1Nc1ccnc(Nc2ccc(N3CCN(C(C)=O)CC3)cc2OC)n1 [Example 19, 1,1′-(4,4′-(4,4′-(pyrimidin-2,4-diylbis(azanediyl))bis(3-methoxy-4,1-phenylene))bis(piperazin-4,1-diyl))diethanone]
remaining activity at 0.1 µM: 6%
remaining activity at 1 µM: 0%

COc1cc(N2CCN(C(C)=O)CC2)ccc1Nc1ncc(Cl)c(Nc2ccc(N3CCN(S(N)(=O)=O)CC3)cc2OC)n1 [Example 21, 4-(4-(2-(4-(4-acetylpiperazin-1-yl)-2-methoxyphenylamino)-5-chloropyrimidin-4-ylamino)-3-methoxyphenyl)piperazin-1-sulfonamide]
remaining activity at 0.1 µM: 0%
remaining activity at 1 µM: 0%

CCC(=O)N1CCN(c2ccc(Nc3nc(Nc4ccc(N5CCN(C(C)=O)CC5)cc4OC)ncc3Cl)c(OC)c2)CC1 [Example 22, 1-(4-(4-(2-(4-(4-acetylpiperazin-1-yl)-2-methoxyphenylamino)-5-chloropyrimidin-4-ylamino)-3-methoxyphenyl)piperazin-1-yl)propan-1-one]
remaining activity at 0.1 µM: 1%
remaining activity at 1 µM: 0%

COc1cc(N2CCN(C(C)=O)CC2)ccc1Nc1nc(Nc2ccc(N3CCN(C(C)=O)CC3)cc2)ncc1F [Example 24, 1-(4-(4-(4-(4-(4-acetylpiperazin-1-yl)-2-methoxyphenylamino)-5-fluoropyrimidin-2-ylamino)phenyl)piperazin-1-yl)ethanone]
remaining activity at 0.1 µM: 2%
remaining activity at 1 µM: 0%

COc1cc(N2CCN(C(C)=O)CC2)ccc1Nc1ncc(F)c(Nc2ccc(N3CCNCC3)cc2OC)n1 [Example 25, 1-(4-(4-(5-fluoro-4-(2-methoxy-4-(piperazin-1-yl)phenylamino)pyrimidin-2-ylamino)-3-methoxyphenyl)piperazin-1-yl)ethanone]
remaining activity at 0.1 µM: 4%
remaining activity at 1 µM: 0%

COc1cc(N2CCN(C(C)=O)CC2)ccc1Nc1ncc(F)c(Nc2ccc(N3CCN(S(C)(=O)=O)CC3)cc2OC)n1 [Example 26, 1-(4-(4-(5-fluoro-4-(2-methoxy-4-(4-(methylsulfonyl)piperazin-1-yl)phenylamino)pyrimidin-2-ylamino)-3-methoxyphenyl)piperazin-1-yl)ethanone]
remaining activity at 0.1 µM: 0%
remaining activity at 1 µM: 1%

COc1cc(N2CCN(C(C)=O)CC2)ccc1Nc1ncc(F)c(Nc2ccc(N3CCN(CCO)CC3)cc2OC)n1 [Example 28, 1-(4-(4-(5-fluoro-4-(4-(4-(2-hydroxyethyl)piperazin-1-yl)-2-methoxyphenylamino)pyrimidin-2-ylamino)-3-methoxyphenyl)piperazin-1-yl)ethanone]
remaining activity at 0.1 µM: 1%
remaining activity at 1 µM: 2%

CCOc1cc(N2CCN(C(C)=O)CC2)ccc1Nc1nc(Nc2ccc(N3CCN(C(C)=O)CC3)cc2OC)ncc1F [Example 29, 1-(4-(4-(4-(4-(4-acetylpiperazin-1-yl)-2-ethoxyphenylamino)-5-fluoropyrimidin-2-ylamino)-3-methoxyphenyl)piperazin-1-yl)ethanone]
remaining activity at 0.1 µM: ≤ 10%
remaining activity at 1 µM: ≤ 3%

COc1cc(N2CCN(C(C)=O)CC2)ccc1Nc1ncc(F)c(Nc2ccc(N3CCN(C)CC3)cc2OC)n1 [Example 30, 1-(4-(4-(5-fluoro-4-(2-methoxy-4-(4-methylpiperazin-1-yl)phenylamino)pyrimidin-2-ylamino)-3-methoxyphenyl)piperazin-1-yl)ethanone]
remaining activity at 0.1 µM: 2%
remaining activity at 1 µM: 0%

COc1cc(N2CCN(C(C)=O)CC2)ccc1Nc1ncc(F)c(Nc2ccc(N3CCN(C(=O)CO)CC3)cc2OC)n1 [Example 36, 1-(4-(4-(2-(4-(4-acetylpiperazin-1-yl)-2-methoxyphenylamino)-5-fluoropyrimidin-4-ylamino)-3-methoxyphenyl)piperazin-1-yl)-2-hydroxyethanone]
remaining activity at 0.1 µM: 2%
remaining activity at 1 µM: 0%

COc1cc(N2CCN(C(C)=O)CC2)ccc1Nc1ncc(F)c(Nc2ccc(N3CCN(C)CC3)cc2OC(F)F)n1 [Example 38, 1-(4-(4-(4-(2-(difluoromethoxy)-4-(4-methylpiperazin-1-yl)phenylamino)-5-fluoropyrimidin-2-ylamino)-3-methoxyphenyl)piperazin-1-yl)ethanone]
remaining activity at 0.1 µM: 1%
remaining activity at 1 µM: 0%

COC(=O)N1CCN(c2ccc(Nc3nc(Nc4ccc(N5CCN(C(C)=O)CC5)cc4OC)ncc3F)c(OC(F)F)c2)CC1 [Example 41, methyl 4-(4-(2-(4-(4-acetylpiperazin-1-yl)-2-methoxyphenylamino)-5-fluoropyrimidin-4-ylamino)-3-(difluoromethoxy)phenyl)piperazin-1-carboxylate]
remaining activity at 0.1 µM: 1%
remaining activity at 1 µM: 0%

COc1cc(N2CCN(C(C)=O)CC2)ccc1Nc1ncc(F)c(Nc2ccc(N3CCN(CCO)CC3)cc2OC(F)F)n1 [Example 42, 1-(4-(4-(4-(2-(difluoromethoxy)-4-(4-(2-hydroxyethyl)piperazin-1-yl)phenylamino)-5-fluoropyrimidin-2-ylamino)-3-methoxyphenyl)piperazin-1-yl)ethanone]
remaining activity at 0.1 µM: 2%
remaining activity at 1 µM: 0%

COc1cc(N2CCN(C(C)=O)CC2)ccc1Nc1ncc(F)c(Nc2ccc(N3CCN(C(=O)CO)CC3)cc2OC(F)F)n1 [Example 44, 1-(4-(4-(2-(4-(4-acetylpiperazin-1-yl)-2-methoxyphenylamino)-5-fluoropyrimidin-4-ylamino)-3-(difluoromethoxy)phenyl)piperazin-1-yl)-2-hydroxyethanone]
remaining activity at 0.1 µM: 2%
remaining activity at 1 µM: 1%

COc1cc(N2CCN(C(C)=O)CC2)ccc1Nc1ncc(C(F)(F)F)c(Nc2ccc(N3CCNCC3)cc2OC)n1 [Example 56, 1-(4-(3-methoxy-4-((4-((2-methoxy-4-(piperazin-1-yl)phenyl)amino)-5-(trifluoromethyl)pyrimidin-2-yl)amino)phenyl)piperazin-1-yl)ethanone]
remaining activity at 0.1 µM: 1%
remaining activity at 1 µM: 0%

CCNC(=O)N1CCN(c2ccc(Nc3nc(Nc4ccc(N5CCN(C(C)=O)CC5)cc4OC)ncc3C(F)(F)F)c(OC)c2)CC1 [Example 57, 4-(4-((2-((4-(4-acetylpiperazine)-2-methoxyphenyl)amino)-5-(trifluoromethyl)pyrimidin-4-yl)amino)-3-methoxyphenyl)-N-ethylpiperazin-1-carboxyamide]
remaining activity at 0.1 µM: 1%
remaining activity at 1 µM: 0%

COc1cc(N2CCN(C(C)=O)CC2)ccc1Nc1ncc(C(F)(F)F)c(Nc2ccc(N3CCN(C(=O)CO)CC3)cc2OC)n1 [Example 58, 1-(4-(4-((2-((4-(4-acetylpiperazin-1-yl)-2-methoxyphenyl)amino)-5-(trifluoromethyl)pyrimidin-4-yl)amino)-3-methoxyphenyl)piperazin-1-yl)-2-hydroxyethanone]
remaining activity at 0.1 µM: 5%
remaining activity at 1 µM: 1%
